Measured values: ChEMBL document CHEMBL3351225, “Design, synthesis, and structure-activity and structure-pharmacokinetic relationship studies of novel [6,6,5] tricyclic fused oxazolidinones leading to the discovery of a potent, selective, and orally bioavailable FXa inhibitor” (J Med Chem, 2014)

What was measured:
[1] = species: Homo sapiens; assay: Selectivity index, ratio of IC50 for human factor 11a to IC50 for human factor 10a
[2] = species: Homo sapiens; assay: Selectivity index, ratio of IC50 for human factor 2a to IC50 for human factor 10a
[3] = species: Homo sapiens; assay: Selectivity index, ratio of IC50 for human factor 7a to IC50 for human factor 10a
[4] = species: Homo sapiens; assay: Selectivity index, ratio of IC50 for human factor 9a to IC50 for human factor 10a
[5] = species: Homo sapiens; assay: Selectivity index, ratio of IC50 for human trypsin to IC50 for human factor 10a

Measured: Ratio IC50

O=C(NC[C@@H]1OC(=O)N2c3ccc(N4CCOCC4=O)cc3CC[C@@H]12)c1ccc(Cl)s1
> 20000: all assays above
